Patent publication US20260000728A1, “PEPTIDE HAVING ACE INHIBITORY ACTIVITY AND COMPOSITION CONTAINING THE SAME” (Vedan International (Holdings) Limited, priority 2024, published 2026)

By UniProt entry, the sequences of proteins in these tests, tags left out. Residues count along the entry.
UniProt P12821, 30-1306, species assumed: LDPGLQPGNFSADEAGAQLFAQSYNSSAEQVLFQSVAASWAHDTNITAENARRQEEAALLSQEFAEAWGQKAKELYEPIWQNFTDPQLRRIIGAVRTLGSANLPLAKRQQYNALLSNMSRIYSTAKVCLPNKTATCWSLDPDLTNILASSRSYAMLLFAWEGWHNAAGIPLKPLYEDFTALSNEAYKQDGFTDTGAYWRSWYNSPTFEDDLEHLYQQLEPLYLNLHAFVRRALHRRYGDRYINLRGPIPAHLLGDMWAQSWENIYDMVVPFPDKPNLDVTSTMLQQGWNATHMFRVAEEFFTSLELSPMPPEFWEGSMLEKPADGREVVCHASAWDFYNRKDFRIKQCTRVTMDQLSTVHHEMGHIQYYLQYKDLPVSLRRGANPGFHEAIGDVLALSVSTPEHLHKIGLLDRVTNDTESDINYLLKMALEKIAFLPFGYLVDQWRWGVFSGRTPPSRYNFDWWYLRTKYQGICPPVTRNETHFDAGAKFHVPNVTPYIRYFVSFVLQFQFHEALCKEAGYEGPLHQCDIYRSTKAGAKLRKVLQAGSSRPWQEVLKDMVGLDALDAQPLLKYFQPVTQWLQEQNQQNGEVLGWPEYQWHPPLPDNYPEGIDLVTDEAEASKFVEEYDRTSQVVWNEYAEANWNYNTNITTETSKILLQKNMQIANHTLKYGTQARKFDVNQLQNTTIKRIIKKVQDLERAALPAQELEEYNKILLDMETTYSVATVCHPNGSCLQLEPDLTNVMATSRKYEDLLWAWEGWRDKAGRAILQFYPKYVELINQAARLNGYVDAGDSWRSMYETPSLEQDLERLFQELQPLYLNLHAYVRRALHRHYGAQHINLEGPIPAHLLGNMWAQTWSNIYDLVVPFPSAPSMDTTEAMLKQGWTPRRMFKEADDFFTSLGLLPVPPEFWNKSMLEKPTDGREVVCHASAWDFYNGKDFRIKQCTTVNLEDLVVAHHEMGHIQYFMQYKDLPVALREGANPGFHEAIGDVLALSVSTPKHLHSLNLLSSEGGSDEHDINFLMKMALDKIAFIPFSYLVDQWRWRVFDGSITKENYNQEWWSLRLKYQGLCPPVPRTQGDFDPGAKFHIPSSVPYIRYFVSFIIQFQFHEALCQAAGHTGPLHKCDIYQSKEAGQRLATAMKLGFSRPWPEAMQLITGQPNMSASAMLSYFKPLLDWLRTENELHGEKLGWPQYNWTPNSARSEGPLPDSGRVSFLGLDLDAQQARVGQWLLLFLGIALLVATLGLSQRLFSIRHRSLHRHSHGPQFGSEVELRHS

Target: ACE (Homo sapiens, UniProt P12821)
Assay: IC50 of each tripeptide in inhibiting ACE activity
Assay type: biochemical
[1] = read-out: IC50 in inhibiting ACE activity (converted)

IC50 [1]	Compound	IC50 (IC50 in inhibiting ACE activity) [µM]
791 µM and 783 µM	CC(C)C[C@H](N)C(=O)N[C@H](C(=O)N[C@@H](Cc1ccccc1)C(=O)O)[C@@H](C)O [LTF, Leu-Thr-Phe]	
1200 µM	CC(C)C[C@H](N)C(=O)N[C@@H](CO)C(=O)N[C@@H](Cc1ccccc1)C(=O)O [LSF, Leu-Ser-Phe]	
	CC(C)[C@H](NC(=O)[C@@H](N)Cc1ccc(O)cc1)C(=O)N[C@@H](Cc1ccccc1)C(=O)O [YVF, Tyr-Val-Phe]	1920
1560 µM and 1550 µM	CC(C)[C@H](N)C(=O)N[C@H](C(=O)N[C@@H](Cc1ccccc1)C(=O)O)[C@@H](C)O [VTF, Val-Thr-Phe]	

“And” between values parts separate entries of the source, which are not always exact repeats. Identical values can stand only once. Like-named read-outs stand apart in the source and are kept apart here.
